Drawing on paper PMC4166032 (Bioconjugate Chemistry, 2014), this text covers IC50 for 1 substance.

Read-outs that look alike come from different tables or passages of the source.

What is called IC50 is the concentration needed to halve the response being measured.

The assay addresses T1, GST-hPXR-LBD (Homo sapiens, UniProt O75469).
T1 sequence (O75469 146-433 limits assumed): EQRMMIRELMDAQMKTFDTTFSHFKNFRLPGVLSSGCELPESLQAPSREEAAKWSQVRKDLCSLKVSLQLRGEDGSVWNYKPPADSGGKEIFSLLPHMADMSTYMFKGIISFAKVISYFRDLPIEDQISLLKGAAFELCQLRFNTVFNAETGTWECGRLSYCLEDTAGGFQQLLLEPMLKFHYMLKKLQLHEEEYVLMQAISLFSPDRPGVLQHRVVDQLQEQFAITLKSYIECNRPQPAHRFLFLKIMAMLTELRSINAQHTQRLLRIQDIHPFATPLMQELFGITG
The settings on record: 30 min.

On to ginkgolide B [ginkgolide B (9)], for which the IC50 by setting is: (read-out: IC50 with 50 nM 20, 50 nM BODIPY FL vindoline (20) probe) 10.4 µM; (read-out: IC50 with 100 nM 20, 100 nM BODIPY FL vindoline (20) probe, laboratory assay buffer, 1.1% DMSO) 13 µM.
